{"source": "ChEMBL document CHEMBL1149509", "about": "“Search of antitubercular activities in tetrahydroacridines: synthesis and biological evaluation” (Bioorg Med Chem Lett, 2006)", "assay": "Partition coefficient, log P of the compound", "type": "physicochemical", "conditions": "octanol/water", "data": [{"smiles": "c1ccc2c(NCCCCNc3c4c(nc5ccccc35)CCCC4)c3c(nc2c1)CCCC3", "values": [{"measurement": "LogP", "value": 6.74}]}, {"smiles": "c1ccc2c(NCCCNc3c4c(nc5ccccc35)CCCC4)c3c(nc2c1)CCCC3", "values": [{"measurement": "LogP", "value": 6.28}]}]}
